Reference: patent US20140094482A1, “BENZAZOCINE-RING COMPOUND INHIBITION OF TAU HYPERPHOSPHORYLATION” (priority 2012, published 2014)

By UniProt entry, the sequences of proteins in these tests, tags left out. Where a name states a change or a piece, a line headed by the entry shows the natural chain unless it says otherwise.
UniProt P21333: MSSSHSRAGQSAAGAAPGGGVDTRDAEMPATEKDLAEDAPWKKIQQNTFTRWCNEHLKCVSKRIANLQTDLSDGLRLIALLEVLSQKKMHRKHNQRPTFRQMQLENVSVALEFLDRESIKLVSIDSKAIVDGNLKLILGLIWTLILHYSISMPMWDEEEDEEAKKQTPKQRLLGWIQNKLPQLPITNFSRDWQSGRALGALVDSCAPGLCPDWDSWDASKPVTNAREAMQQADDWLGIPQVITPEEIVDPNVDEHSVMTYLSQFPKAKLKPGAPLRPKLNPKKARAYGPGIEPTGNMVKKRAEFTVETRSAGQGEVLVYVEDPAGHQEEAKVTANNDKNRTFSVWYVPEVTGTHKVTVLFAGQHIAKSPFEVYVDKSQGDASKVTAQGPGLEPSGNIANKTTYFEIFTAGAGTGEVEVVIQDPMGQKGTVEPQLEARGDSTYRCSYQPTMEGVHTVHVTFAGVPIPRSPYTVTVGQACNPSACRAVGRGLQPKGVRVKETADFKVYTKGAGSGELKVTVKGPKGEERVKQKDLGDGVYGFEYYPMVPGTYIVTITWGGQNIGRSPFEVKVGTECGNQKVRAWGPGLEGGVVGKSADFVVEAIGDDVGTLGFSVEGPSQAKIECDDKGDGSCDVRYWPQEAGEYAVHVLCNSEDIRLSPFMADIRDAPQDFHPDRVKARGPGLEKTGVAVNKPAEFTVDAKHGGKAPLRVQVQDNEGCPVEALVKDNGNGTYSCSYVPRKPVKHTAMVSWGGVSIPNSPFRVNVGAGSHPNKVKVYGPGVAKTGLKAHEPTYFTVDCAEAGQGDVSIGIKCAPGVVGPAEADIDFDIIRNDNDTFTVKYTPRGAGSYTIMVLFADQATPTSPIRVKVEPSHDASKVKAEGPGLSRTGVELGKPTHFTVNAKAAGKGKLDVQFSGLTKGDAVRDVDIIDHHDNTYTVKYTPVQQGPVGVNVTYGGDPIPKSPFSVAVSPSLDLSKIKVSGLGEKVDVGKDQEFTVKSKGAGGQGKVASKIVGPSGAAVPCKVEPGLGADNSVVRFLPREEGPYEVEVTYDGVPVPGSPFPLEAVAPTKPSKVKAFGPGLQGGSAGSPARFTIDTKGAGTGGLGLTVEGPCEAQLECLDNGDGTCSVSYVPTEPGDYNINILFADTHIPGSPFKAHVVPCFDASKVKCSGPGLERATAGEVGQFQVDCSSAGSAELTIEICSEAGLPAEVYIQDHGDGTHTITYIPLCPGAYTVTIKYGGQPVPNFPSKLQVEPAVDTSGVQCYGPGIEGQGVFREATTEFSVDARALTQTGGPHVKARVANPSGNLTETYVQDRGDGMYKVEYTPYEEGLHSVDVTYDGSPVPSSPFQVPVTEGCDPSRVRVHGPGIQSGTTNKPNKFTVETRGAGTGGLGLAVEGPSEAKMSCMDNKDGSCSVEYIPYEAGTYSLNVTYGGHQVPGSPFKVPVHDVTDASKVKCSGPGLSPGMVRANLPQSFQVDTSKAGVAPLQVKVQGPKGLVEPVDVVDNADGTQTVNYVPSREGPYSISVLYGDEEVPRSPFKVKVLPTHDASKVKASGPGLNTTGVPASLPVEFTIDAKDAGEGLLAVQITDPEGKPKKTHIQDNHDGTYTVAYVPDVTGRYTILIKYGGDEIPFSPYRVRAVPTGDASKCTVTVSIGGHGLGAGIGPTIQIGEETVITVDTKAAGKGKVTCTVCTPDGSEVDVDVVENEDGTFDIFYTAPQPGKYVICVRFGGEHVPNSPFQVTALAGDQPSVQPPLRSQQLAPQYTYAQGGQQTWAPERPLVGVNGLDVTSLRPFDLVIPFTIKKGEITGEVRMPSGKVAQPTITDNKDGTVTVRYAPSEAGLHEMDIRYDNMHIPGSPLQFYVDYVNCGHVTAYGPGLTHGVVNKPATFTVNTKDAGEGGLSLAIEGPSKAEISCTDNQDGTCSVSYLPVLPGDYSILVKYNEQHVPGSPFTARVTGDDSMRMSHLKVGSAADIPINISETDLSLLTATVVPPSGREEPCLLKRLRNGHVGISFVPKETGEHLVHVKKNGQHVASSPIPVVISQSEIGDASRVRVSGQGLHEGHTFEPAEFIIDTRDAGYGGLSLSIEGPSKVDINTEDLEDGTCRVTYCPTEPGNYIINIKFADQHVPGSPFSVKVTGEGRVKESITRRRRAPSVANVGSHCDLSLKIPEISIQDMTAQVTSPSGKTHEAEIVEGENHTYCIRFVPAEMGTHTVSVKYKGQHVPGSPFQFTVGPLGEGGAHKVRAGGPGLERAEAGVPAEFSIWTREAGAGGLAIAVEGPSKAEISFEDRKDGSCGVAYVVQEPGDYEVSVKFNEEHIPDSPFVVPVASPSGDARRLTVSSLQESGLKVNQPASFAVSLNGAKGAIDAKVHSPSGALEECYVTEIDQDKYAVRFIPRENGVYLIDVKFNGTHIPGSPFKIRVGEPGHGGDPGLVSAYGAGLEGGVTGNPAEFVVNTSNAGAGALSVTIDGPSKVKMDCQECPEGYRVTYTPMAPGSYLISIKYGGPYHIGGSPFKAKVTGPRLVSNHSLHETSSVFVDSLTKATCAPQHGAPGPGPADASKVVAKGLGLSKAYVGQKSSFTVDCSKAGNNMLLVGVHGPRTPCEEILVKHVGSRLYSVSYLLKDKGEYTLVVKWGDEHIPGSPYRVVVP
UniProt P35372, whole entry, looked up: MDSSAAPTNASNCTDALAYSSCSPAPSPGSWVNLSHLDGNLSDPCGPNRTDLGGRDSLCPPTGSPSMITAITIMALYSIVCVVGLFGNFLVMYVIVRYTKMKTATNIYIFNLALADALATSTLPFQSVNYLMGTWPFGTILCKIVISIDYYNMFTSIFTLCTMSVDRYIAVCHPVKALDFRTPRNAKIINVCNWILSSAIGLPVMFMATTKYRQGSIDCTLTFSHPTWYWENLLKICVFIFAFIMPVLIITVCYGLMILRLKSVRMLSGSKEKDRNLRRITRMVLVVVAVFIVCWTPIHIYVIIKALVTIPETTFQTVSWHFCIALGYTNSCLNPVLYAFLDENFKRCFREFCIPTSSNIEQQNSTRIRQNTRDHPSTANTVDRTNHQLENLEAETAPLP
UniProt P41143, whole entry, looked up: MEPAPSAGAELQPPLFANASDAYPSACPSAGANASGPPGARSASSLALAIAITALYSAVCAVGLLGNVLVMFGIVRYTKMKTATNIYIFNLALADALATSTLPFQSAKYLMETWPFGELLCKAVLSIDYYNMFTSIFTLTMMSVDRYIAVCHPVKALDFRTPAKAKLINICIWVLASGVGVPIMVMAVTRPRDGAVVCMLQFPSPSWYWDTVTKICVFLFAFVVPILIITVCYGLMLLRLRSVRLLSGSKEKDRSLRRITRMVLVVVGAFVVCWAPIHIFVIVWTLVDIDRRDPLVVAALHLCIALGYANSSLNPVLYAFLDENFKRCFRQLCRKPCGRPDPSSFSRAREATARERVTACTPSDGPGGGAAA
UniProt P41145: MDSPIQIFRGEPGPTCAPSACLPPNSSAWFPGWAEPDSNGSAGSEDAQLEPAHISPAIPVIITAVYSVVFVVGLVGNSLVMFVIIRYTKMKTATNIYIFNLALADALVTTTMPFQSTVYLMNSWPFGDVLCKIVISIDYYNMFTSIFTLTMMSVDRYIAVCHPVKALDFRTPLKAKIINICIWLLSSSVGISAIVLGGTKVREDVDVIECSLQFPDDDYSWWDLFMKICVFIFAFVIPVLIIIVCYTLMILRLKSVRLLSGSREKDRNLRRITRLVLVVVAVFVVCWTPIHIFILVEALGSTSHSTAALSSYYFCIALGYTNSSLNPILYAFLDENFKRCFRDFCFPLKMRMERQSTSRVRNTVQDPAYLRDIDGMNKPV

Columns and labels:
[1] = target: FLNA pentapeptide of SEQ ID NO: 1 (Bn-VAKGL) (Homo sapiens, UniProt P21333); assay: FITC-NLX-based FLNA screening assay (inhibition of FITC-naloxone binding to Bn-VAKGL)
[2] = target: mu opioid receptor (MOR) (Homo sapiens, UniProt P35372); settings: as reported in Goodman & Gilman, 12th ed., Table 18-1-3; cited from earlier work
[3] = target: delta-opioid receptor (Homo sapiens, UniProt P41143); settings: as reported in Goodman & Gilman, 12th ed., Table 18-1-3; cited from earlier work
[4] = target: kappa-opioid receptor (Homo sapiens, UniProt P41145); settings: as reported in Goodman & Gilman, 12th ed., Table 18-1-3; cited from earlier work

For `CO[C@]12CC[C@@]3(C[C@@H]1C(C)(C)O)[C@H]1Cc4ccc(O)c5c4[C@@]3(CCN1CC1CC1)[C@H]2O5`, the “Percent Inhibition” value ([1]; 1 μM compound (n = 5)) is given as 45.9%, the “Percent Inhibition” value ([1]; 10 μM compound (n = 4)) is given as 65.8% and the “RECEPTOR MU: antagonism/agonism and relative potency” value [2] is given as “−−−”. For the same molecule, the “RECEPTOR DELTA: antagonism/agonism and relative potency” value [3] was “−−” and the “RECEPTOR KAPPA: antagonism/agonism and relative potency” value [4] was “−−−”.
